Data from patent publication US7332596B1 (priority 1999, dated 2008).

Experiment: gel assay and MALDI-TOF of proteolysis by potato intercellular wash fluid
Details: 5 minutes in pIWF; relative to the other FCWP proteins

Row | Structure (SMILES) | resistance to proteolysis in potato intercellular wash fluid in vitro
1 | CC(C)C[C@H](NC(=O)CNC(=O)[C@@H](NC(=O)[C@H](CCCCN)NC(=O)[C@@H](N)C(C)C)C(C)C)C(=O)N[C@@H](C)C(=O)N[C@H](C(=O)N[C@@H](CCCCN)C(=O)N[C@@H](C)C(=O)N[C@@H](CCC(=O)O)C(=O)N[C@@H](CCCNC(=N)N)C(=O)N[C@@H](C)C(=O)N[C@@H](CO)C(=O)N[C@@H](CCCNC(=N)N)C(=O)N[C@@H](CCC(N)=O)C(=O)N[C@@H](CCC(N)=O)C(=O)N[C@@H](CCCNC(=N)N)C(=O)N[C@@H](CCCCN)C(=O)N[C@@H](CCC(N)=O)C(=O)N[C@@H](CCCNC(=N)N)C(=O)N[C@@H](CCCCN)C(=O)N[C@@H](CC(N)=O)C(=O)N[C@@H](CCCNC(=N)N)C(=O)N[C@@H](CCC(N)=O)C(=O)N[C@@H](CCCCN)C(=O)N[C@H](C(=O)N[C@@H](CCCNC(=N)N)C(=O)N[C@@H](CCCNC(=N)N)C(=O)NCC(=O)N[C@H](C(=O)N[C@@H](CCCNC(=N)N)C(=O)N[C@@H](CCCCN)C(=O)N[C@H](C(=O)N[C@@H](CCCCN)C(=O)NCC(=O)N[C@@H](C)C(=O)N[C@@H](CCCCN)C(=O)N[C@@H](C)C(=O)N[C@@H](CCCCN)C(=O)N[C@@H](CCCCN)C(=O)O)C(C)C)[C@@H](C)O)[C@@H](C)O)[C@@H](C)O | more resistant
2 | CC(C)C[C@H](NC(=O)CNC(=O)[C@@H](NC(=O)[C@H](CCCCN)NC(=O)[C@@H](N)C(C)C)C(C)C)C(=O)N[C@@H](C)C(=O)N[C@H](C(=O)N[C@@H](CCCCN)C(=O)N[C@@H](C)C(=O)N[C@@H](CCC(=O)O)C(=O)N[C@@H](CCCNC(=N)N)C(=O)N[C@@H](C)C(=O)N[C@@H](CO)C(=O)N[C@@H](CCCNC(=N)N)C(=O)N[C@@H](CCC(N)=O)C(=O)N[C@@H](CCC(N)=O)C(=O)N[C@@H](CCCNC(=N)N)C(=O)N[C@@H](CCCCN)C(=O)N[C@@H](CCC(N)=O)C(=O)N[C@@H](CCCNC(=N)N)C(=O)N[C@@H](CCCCN)C(=O)N[C@@H](CC(N)=O)C(=O)N[C@@H](CCCNC(=N)N)C(=O)N[C@@H](CCC(N)=O)C(=O)N[C@@H](CCCCN)C(=O)N[C@H](C(=O)N[C@@H](CC(C)C)C(=O)N[C@@H](CCCNC(=N)N)C(=O)NCC(=O)N[C@H](C(=O)N[C@@H](CCCNC(=N)N)C(=O)N[C@@H](CCCCN)C(=O)N[C@H](C(=O)N[C@@H](CCCCN)C(=O)NCC(=O)N[C@@H](C)C(=O)N[C@@H](CCCCN)C(=O)N[C@@H](C)C(=O)N[C@@H](CCCCN)C(=O)N[C@@H](CCCCN)C(=O)O)C(C)C)[C@@H](C)O)[C@@H](C)O)[C@@H](C)O | more resistant
